The assay relates to MC3T3-E1 cells. Briefly: qRT-PCR gene expression in mineralizing cells treated with growth factor. It counts as cell-based. As to the method:
Cell Culture: MC3T3-E1 cells were grown and mineralized essentially as described in Example 1. Mineralizing MC3T3-E1 cells were treated with FGF-2 (5 ng/ml) or BMP-2 (100 ng/ml) for 24 hours. hMSC cells were expanded with 5 ng/ml FGF-2 for 3 to 10 days, then treated with DM for 3 or 10 days.
RNA Isolation: RNA was isolated using the RNeasy™ Mini kit (Qiagen, Valencia, Calif.) or TriReagent™ (Sigma-Aldrich, St. Louis, Mo.) according to the manufacturer's protocol.
Reverse Transcription: 1.5 μg of RNA was added to 30 μl reverse transcriptase (RT) reaction buffer containing 5 mM MgCl2, 10 mM Tris-HCl (pH 8.3), 50 mM KCl, 1 mM dNTPs, 2.5 μM oligo d(T) primer, 2.5 U/μl of MuLV RT, and 1 U/μl of RNase inhibitor. The RT reaction was incubated at room temperature for 10 min, 42° C. for 30 min, inactivated at 99° C. for 5 min, and cooled at 5° C. for 5 min.
Real-time Quantitative RT-PCR Reaction (qRT-PCR): 2 μl of cDNA from the RT reaction was added to 20 μl real-time quantitative polymerase chain reaction (qRT-PCR) mixture containing 10 μl of 2×SYBR® Green PCR Master Mix (Applied Biosystems, Foster City, Calif.) and 12 pmol oligonucleotide primers. PCR was carried out in a Bio-Rad MY iQ® Single-Color Real-Time PCR Detection System (Bio-Rad, Hercules, Calif.) at 50° C. for 2 min, 95° C. for 10 min to activate the Taq polymerase, followed by 50 amplification cycles, consisting of denaturation at 95° C. for 1 min 40 sec, annealing at 63° C. for 1 min 10 sec, and elongation at 72° C. for 1 min 40 sec. Fluorescence was measured and used for quantitative purposes. At the end of the amplification period, melting curve analysis was performed to confirm the specificity of the amplicon. RNA samples were normalized to a cyclophilin (CPHI) internal standard. Relative quantification of gene expression was calculated by using the 2^−(Ct gene T−Ct CPHI T)−(Ct gene 0 hr−Ct CPHI 0 hr) equation, where “Ct gene T” represents the calculated threshold cycle (Ct) of a time point of each sample other than 0 hr, or each treatment other than control. Relative gene abundance is calculated using 2^(Ct gene T−Ct CPHI T), resulting numbers were then multiplied by 10,000 for better graphical presentation. Primer sequences were previously described (Hughes-Fulford and Gilbertson, FASEB J. 13:S121-127, 1999; Hughes-Fulford et al., Gravit. Space Biol. Bull. 11:51-60, 1998; Tjandrawinata and Hughes-Fulford, Adv. Exp. Med. Biol. 407:163-170, 1997; Hughes-Fulford, Adv. Exp. Med. Biol. 400A:269-278, 1997; Hughes-Fulford and Lewis, Exp. Cell Res. 224:103-109, 1996). All data derived using qRT-PCR was from multiple experiments with triplicate independent biological samples.

Where [1] appears, read: 24 hours, FGF-2 5 ng/ml or BMP-2 100 ng/ml, corrected to cyclophilin.

The values below come from patent US20100055078A1, “METHODS OF MAKING A TRANSPLANTABLE BONE REPAIR SYSTEM USING MULTIPOTENT STEM CELLS” (The Government of the U.S.A, as represented by the …, priority 2008, published 2010).

Take bone morphogenetic protein-2 [BMP-2]: under setting [1], the “Relative abundance of gene expression: ALP” value was 91.77, the “Relative abundance of gene expression: BMP-2” value worked out at 0.38, the “Relative abundance of gene expression: Collagen Type I” value is recorded as “*170243.43” and the “Relative abundance of gene expression: Fibronectin” value was “**239750.67”. Under setting [1], the “Relative abundance of gene expression: IGF-1” value is reported as 4193.34, the “Relative abundance of gene expression: MMP3” value is given as 0.12, the “Relative abundance of gene expression: Noggin” value is 2.41 and the “Relative abundance of gene expression: OC” value is “*34.04”. Under setting [1], the “Relative abundance of gene expression: RUNX2” value is 1043.65, the “Relative abundance of gene expression: TGFβ” value is “*185.20” and the “Relative abundance of gene expression: VEGFA” value is listed as 537.13. Also, where the note is “after 24 hours of treatment”, the “expression of genes associated with angiogenesis and migration e.g. vegf and mmp3, in words” value was “little or no changes”; the “expression of genes associated with mineralization including col1a1, fn, noggin and oc, in words” value is “significant increases”; the “mineralizing RNA profile of igf-1, alp and bmp-2, in words” value is given as “maintained”.
